Test results taken from BindingDB's records for patent US20240270732 (Chengdu Biobel Biotechnology Co., 2024).

Target: T1, Receptor-interacting serine/threonine-protein kinase 1 (Homo sapiens, UniProt Q13546)
T1 sequence (Q13546 whole entry): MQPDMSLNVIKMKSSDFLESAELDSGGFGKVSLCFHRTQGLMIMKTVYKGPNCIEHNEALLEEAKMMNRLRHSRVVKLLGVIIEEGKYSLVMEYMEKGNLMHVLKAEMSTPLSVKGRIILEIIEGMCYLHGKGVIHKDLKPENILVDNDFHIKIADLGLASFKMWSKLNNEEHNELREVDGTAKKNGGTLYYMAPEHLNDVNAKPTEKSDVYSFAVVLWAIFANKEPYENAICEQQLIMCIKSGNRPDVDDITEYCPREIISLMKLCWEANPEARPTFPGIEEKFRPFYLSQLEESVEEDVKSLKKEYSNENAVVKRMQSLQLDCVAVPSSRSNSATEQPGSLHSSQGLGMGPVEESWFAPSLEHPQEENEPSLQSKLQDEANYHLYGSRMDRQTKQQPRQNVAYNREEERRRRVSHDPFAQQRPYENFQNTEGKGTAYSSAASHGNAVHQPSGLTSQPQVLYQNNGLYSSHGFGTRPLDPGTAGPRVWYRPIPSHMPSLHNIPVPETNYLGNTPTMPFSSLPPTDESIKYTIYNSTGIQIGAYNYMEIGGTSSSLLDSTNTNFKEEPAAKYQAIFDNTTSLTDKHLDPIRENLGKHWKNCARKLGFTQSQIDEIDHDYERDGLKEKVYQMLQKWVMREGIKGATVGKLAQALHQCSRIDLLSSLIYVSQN
Assay: Inhibitory Activity Assay
Method: The compound of the present invention and the control compound were dissolved in the assay buffer (50 mM Hepes pH 7.5, 50 mM NaCl, 30 mM MgCl2, 1 mM DTT, 0.02% CHAPS, 0.5 mg/mL BSA), and diluted in a ratio of 1:1.5 using a 22-point titration (high concentration 2 μM), and then added to a 384-well plate. […] After completion of the reaction, 5 μL of ADP-Glo reagent containing 0.02% CHAPS was added to each well and incubated at room temperature for 1 h to terminate the kinase reaction and use up all remaining ATP. Then, 5 μL of ADP-Glo detection solution containing 0.02% CHAPS was added to each well and incubated at room temperature for 30 min to measure the emittance intensity.

Row | SMILES | IC50 [nM]
1 | C[C@H]1Oc2ccc(C#CCOCCOCCOCCOCCOCC#Cc3ccc4c(c3)N(C)C(=O)[C@@H](NC(=O)c3n[nH]c(Cc5ccccc5)n3)[C@@H](C)O4)cc2N(C)C(=O)[C@H]1NC(=O)c1n[nH]c(Cc2ccccc2)n1 [US20240270732, Compound I-81-1] | 7.79
2 | C#CCOCCOCCOCCOCCOCC#Cc1ccc2c(c1)N(C)C(=O)[C@@H](NC(=O)c1n[nH]c(Cc3ccccc3)n1)[C@@H](C)O2 [US20240270732, Compound I-81-2] | 9.08
